Reference: US20250152585A1, “PHARMACEUTICAL COMPOUND” (Duke Street Bio Limited, priority 2022, published 2025)
Like-named read-outs stand apart in the source and are kept apart here.

Chains of the proteins cited; added tags and fusions are not shown.
UniProt P09874, whole entry: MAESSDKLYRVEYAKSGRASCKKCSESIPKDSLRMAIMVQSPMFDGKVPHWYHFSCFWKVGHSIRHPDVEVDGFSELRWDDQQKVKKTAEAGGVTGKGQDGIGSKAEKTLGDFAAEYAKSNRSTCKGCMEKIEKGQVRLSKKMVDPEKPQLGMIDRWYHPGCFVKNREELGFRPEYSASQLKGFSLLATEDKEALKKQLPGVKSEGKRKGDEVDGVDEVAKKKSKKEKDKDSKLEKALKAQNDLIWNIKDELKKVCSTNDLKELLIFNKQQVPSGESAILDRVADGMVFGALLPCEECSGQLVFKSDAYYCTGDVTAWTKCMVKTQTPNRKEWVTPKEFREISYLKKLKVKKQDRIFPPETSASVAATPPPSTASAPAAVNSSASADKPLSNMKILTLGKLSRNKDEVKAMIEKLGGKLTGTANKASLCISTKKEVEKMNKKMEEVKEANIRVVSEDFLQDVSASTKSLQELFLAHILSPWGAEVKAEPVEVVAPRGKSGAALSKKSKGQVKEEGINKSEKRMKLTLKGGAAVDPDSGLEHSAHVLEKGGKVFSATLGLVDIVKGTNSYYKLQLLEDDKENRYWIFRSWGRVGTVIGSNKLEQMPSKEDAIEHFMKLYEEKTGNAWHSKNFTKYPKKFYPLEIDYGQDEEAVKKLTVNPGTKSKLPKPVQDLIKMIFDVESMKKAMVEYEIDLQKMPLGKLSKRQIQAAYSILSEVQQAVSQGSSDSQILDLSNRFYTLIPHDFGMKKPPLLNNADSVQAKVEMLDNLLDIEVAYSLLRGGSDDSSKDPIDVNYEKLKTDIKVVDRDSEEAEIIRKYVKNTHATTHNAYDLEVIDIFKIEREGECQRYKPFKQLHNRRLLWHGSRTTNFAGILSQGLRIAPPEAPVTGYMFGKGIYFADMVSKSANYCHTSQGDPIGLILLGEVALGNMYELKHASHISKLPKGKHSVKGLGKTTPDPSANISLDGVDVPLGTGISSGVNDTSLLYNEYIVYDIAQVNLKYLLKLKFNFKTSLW
UniProt Q9UGN5, whole entry: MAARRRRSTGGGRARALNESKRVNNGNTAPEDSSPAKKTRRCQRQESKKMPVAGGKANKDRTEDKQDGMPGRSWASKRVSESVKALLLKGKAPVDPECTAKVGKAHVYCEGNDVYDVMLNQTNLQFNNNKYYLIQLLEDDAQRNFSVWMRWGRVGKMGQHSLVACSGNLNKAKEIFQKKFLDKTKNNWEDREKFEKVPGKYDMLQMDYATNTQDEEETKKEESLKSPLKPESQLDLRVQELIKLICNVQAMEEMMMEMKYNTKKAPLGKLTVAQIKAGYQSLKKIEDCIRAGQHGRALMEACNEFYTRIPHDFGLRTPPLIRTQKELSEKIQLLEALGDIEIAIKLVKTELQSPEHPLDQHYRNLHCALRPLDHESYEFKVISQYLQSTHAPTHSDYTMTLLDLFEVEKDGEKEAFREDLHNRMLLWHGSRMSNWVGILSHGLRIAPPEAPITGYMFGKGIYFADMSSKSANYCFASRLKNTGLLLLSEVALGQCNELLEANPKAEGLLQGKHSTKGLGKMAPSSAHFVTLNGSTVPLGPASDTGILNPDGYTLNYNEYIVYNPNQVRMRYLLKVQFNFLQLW

How the values were obtained:
[1] = target: T1, full length N-terminally FLAG-tagged PARP1 (Homo sapiens, UniProt P09874); experiment: PARP1 probe displacement HTRF assay; settings: for Selectivity: PARP1 over PARP2, ratio Kd (PARP2)/Kd (PARP1); for Kd: read-out: PARP1 HTRF, binned Kd
[2] = target: N-terminally FLAG-tagged PARP2 (amino acids 1-583) (Homo sapiens, UniProt Q9UGN5); experiment: PARP2 probe displacement HTRF assay; settings: read-out: PARP2 HTRF, binned Kd
Procedure: This assay was performed under identical conditions as for PARP1, except that N-terminally FLAG-tagged PARP2 (amino acids 1-583) was used instead of PARP1, and PARP1/2 binding probe was used at 10-fold probe Kd=540 nM. Data analysis was performed identical as for PARP1.

PARP1 = PARP1 (Homo sapiens, UniProt P09874); experiment: NanoBRET cellular target occupancy assay, PARP1; format: cell-based; settings: for Selectivity: NanoBRET, PARP1 over PARP2, Kd (PARP2)/Kd (PARP1); for Kd: read-out: PARP1 NanoBRET, HEK293 cells transiently transfected with PARP1-NanoLuc fusion, tracer 11 nM, 2 hours at 37° C., Kd by Cheng-Prussoff
PARP2 = PARP2 (Homo sapiens, UniProt Q9UGN5); experiment: NanoBRET cellular target occupancy assay, PARP2; settings: read-out: PARP2 NanoBRET; HEK293 cells transiently transfected with PARP2-NanoLuc fusion; tracer 2 nM; 2 hours at 37° C.; Kd by Cheng-Prussoff
Description: NanoBRET Cellular Target Occupancy Assay

[3] = target: T1, full length N-terminally FLAG-tagged PARP1; experiment: PARP1 biochemical DELFIA assay (auto-PARylation); settings: read-out: PARP1 DELFIA
[4] = binned IC50, PARP1 biochemical DELFIA assay
[5] = binned IC50, biochemical auto-PARylation assay

SMILES | Selectivity ([1]; probe displacement HTRF) | Kd ([1]; PARP1 probe displacement HTRF) [nM] | Kd ([2]; PARP2 probe displacement HTRF) [nM] | Selectivity (PARP1) | Kd (PARP1) [nM] | Kd (PARP2) [nM] | IC50 [3, 4] [nM] | Kd ([1]; probe displacement HTRF) [nM] | Kd ([2]; probe displacement HTRF) [nM] | IC50 [3, 5] [nM]
CNC(=O)c1cc(C)c(N2CCC(N3CCC(c4cc5cccc(F)c5c(=O)[nH]4)C3)CC2)cn1 (racemic) | + (+ indicates a value of 10 to less than 50) | < 10 | 10 to 100 | + (+ indicates a value of 10 to less than 50) | < 10 | 100 to 1000 | < 10 | – | – | –
O=C(NCC(F)F)c1ccc(N2CCC(N3CCC(c4cc5cccc(F)c5c(=O)[nH]4)C3)CC2)cn1 (single isomer, unassigned) | + (+ indicates a value of 10 to less than 50) | – | – | ++ (++ indicates a value of 50 to less than 100) | < 10 | 10 to 100 | – | < 10 | 10 to 100 | < 10
O=C(NC1CC1)c1ccc(N2CCC(N3CCC(c4cc5cccc(F)c5c(=O)[nH]4)C3)CC2)c(F)n1 (single isomer, unassigned) [350b] | ++ (++ indicates a value of 50 to less than 100) | – | – | +++ (+++ indicate a value of at least 100) | < 10 | 10 to 100 | – | < 10 | 10 to 100 | < 10
CNC(=O)c1ncc(N2CCC(N3CCC(c4cc5cccc(F)c5c(=O)[nH]4)C3)CC2)cc1F (single isomer, unassigned) [352a] | +++ (+++ indicate a value of at least 100) | – | – | +++ (+++ indicate a value of at least 100) | < 10 | 100 to 1000 | – | < 10 | 10 to 100 | < 10
CNC(=O)c1ncc(N2CCC(N3CCC(c4cc5cccc(F)c5c(=O)[nH]4)C3)CC2)cc1F (single isomer, unassigned) [352b] | ++ (++ indicates a value of 50 to less than 100) | – | – | – | – | – | – | < 10 | 100 to 1000 | < 10
CNC(=O)c1ccc(N2CCC(N3CC4CC4(c4nc5ccccc5c(=O)[nH]4)C3)CC2)cn1 (single isomer, unassigned) [359a] | ++ (++ indicates a value of 50 to less than 100) | – | – | – | – | – | – | 10 to 100 | 1000 to 10000 | 10 to 100
CNC(=O)c1ccc(N2CCC(N3CC4CC4(c4nc5ccccc5c(=O)[nH]4)C3)CC2)cn1 (single isomer, unassigned) [359b] | + (+ indicates a value of 10 to less than 50) | – | – | – | – | – | – | 100 to 1000 | > 10000 | 10 to 100
CCc1ccc(C2CCN(C3CCN(c4ccc(C(=O)NC)cc4F)CC3)C2)[nH]c1=O (single isomer, unassigned) [364a] | + (+ indicates a value of 10 to less than 50) | – | – | – | – | – | – | 100 to 1000 | > 10000 | 100 to 1000
CCc1ccc(C2CCN(C3CCN(c4ccc(C(=O)NC)cc4F)CC3)C2)[nH]c1=O (single isomer, unassigned) [364b] | ++ (++ indicates a value of 50 to less than 100) | – | – | – | – | – | – | < 10 | 100 to 1000 | < 10
CNC(=O)c1ccc(N2CCC(N3CCC(c4cc5c(Cl)cncc5c(=O)[nH]4)C3)CC2)c(F)n1 (single isomer, unassigned) [367a] | +++ (+++ indicate a value of at least 100) | – | – | – | – | – | – | < 10 | 100 to 1000 | < 10
CNC(=O)c1ccc(N2CCC(N3CCC(c4cc5c(Cl)cncc5c(=O)[nH]4)C3)CC2)c(F)n1 (single isomer, unassigned) [367b] | +++ (+++ indicate a value of at least 100) | – | – | – | – | – | – | < 10 | 1000 to 10000 | < 10
CNC(=O)c1ccc(N2CCC(N3CCC(c4cc5c(F)cc(F)cc5c(=O)[nH]4)C3)CC2)cn1 (single isomer, unassigned) [Compound 186a] | + (+ indicates a value of 10 to less than 50) | < 10 | 10 to 100 | +++ (+++ indicate a value of at least 100) | < 10 | 10 to 100 | < 10 | – | – | –
CNC(=O)c1cc(C)c(N2CCC(N3CCC(c4cc5ccc(F)cc5c(=O)[nH]4)C3)CC2)cn1 (single isomer, unassigned) [Compound 202b] | + (+ indicates a value of 10 to less than 50) | 10 to 100 | 100 to 1000 | – | – | – | 10 to 100 | – | – | –
CCc1ccc(C2CCN(C3CCN(c4ccc(C(=O)NC)nn4)CC3)C2)[nH]c1=O (single isomer, unassigned) [Compound 210b] | + (+ indicates a value of 10 to less than 50) | 100 to 1000 | > 10000 | – | – | – | 100 to 1000 | – | – | –
CNC(=O)c1ccc(N2CCC(N3CCC(c4nc5c(C)scc5c(=O)[nH]4)C3)CC2)cn1 (single isomer, unassigned) [Compound 232a] | +++ (+++ indicate a value of at least 100) | – | – | – | – | – | – | < 10 | 100 to 1000 | < 10
CC(=O)Nc1ccc(N2CCC(N3CCC(c4cc5ccccc5c(=O)[nH]4)C3)CC2)c(Cl)c1 (single isomer, unassigned) [Compound 273a] | + (+ indicates a value of 10 to less than 50) | – | – | – | – | – | – | 10 to 100 | 100 to 1000 | 10 to 100
CNC(=O)c1csc(N2CCC(N3CCC(c4cc5ccccc5c(=O)[nH]4)C3)CC2)n1 (single isomer, unassigned) [Compound 274a] | + (+ indicates a value of 10 to less than 50) | – | – | – | – | – | – | 100 to 1000 | 1000 to 10000 | 10 to 100
CCc1ccc(C2CCN(C3CCN(c4ccc(C(=O)NCC(F)(F)F)nc4F)CC3)C2)[nH]c1=O (single isomer, unassigned) [Compound 285b] | +++ (+++ indicate a value of at least 100) | – | – | +++ (+++ indicate a value of at least 100) | < 10 | 100 to 1000 | – | < 10 | 100 to 1000 | < 10
CNC(=O)c1ccc(N2CCC(N3CCC(c4nc5c(C(F)(F)F)c[nH]c5c(=O)[nH]4)C3)CC2)cn1 (single isomer, unassigned) [Compound 293a] | − (− indicates a value of less than 10) | – | – | – | – | – | – | 100 to 1000 | 1000 to 10000 | 100 to 1000
CCc1ccc(C2CCN(C3CCN(c4ccc(C#N)cn4)CC3)C2)[nH]c1=O (single isomer, unassigned) [Compound 332b] | + (+ indicates a value of 10 to less than 50) | – | – | – | – | – | – | 100 to 1000 | 1000 to 10000 | 100 to 1000
CCc1ccc(C2CCN(C3CCN(c4ccc(C(=O)NC5CC5)nc4F)CC3)C2)[nH]c1=O (single isomer, unassigned) [Compound 353a] | +++ (+++ indicate a value of at least 100) | – | – | – | – | – | – | < 10 | 100 to 1000 | < 10
CCc1ccc(C2CCN(C3CCN(c4ccc(C(=O)NCC(F)F)nc4)CC3)C2)[nH]c1=O (single isomer, unassigned) [Compound 354b] | +++ (+++ indicate a value of at least 100) | – | – | – | – | – | – | 10 to 100 | 1000 to 10000 | 10 to 100
N#Cc1ccc(N2CCC(N3CCC(c4cc5cccc(F)c5c(=O)[nH]4)C3)CC2)c(F)c1 (single isomer, unassigned) [Compound 356b] | +++ (+++ indicate a value of at least 100) | – | – | +++ (+++ indicate a value of at least 100) | < 10 | 1000 to 10000 | – | < 10 | 100 to 1000 | < 10
